Source: PMC7181051, “Probing the Protein-Protein Interaction between the ATRXADD Domain and the Histone H3 Tail” (Molecules, 2020)

Legend:
ATRXADD [1] = biological target: T1, ATRXADD (Homo sapiens, UniProt P46100); conditions: fluorescence-titration assay; cited from earlier work
T1 construct: The pGEX-GP-2-ATRX ADD plasmid (Addgene plasmid #59698) [17] was transformed into BL21 cells for expression and purification; GST (N, cleaved yes); peptides GenScript #59698; host or cells: E. coli BL21
T1 sequence (P46100 159-296 limits assumed): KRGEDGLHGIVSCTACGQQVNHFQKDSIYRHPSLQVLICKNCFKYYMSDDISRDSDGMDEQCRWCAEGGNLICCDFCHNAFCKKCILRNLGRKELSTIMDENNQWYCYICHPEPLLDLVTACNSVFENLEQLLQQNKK
Excerpt: It is important to note that a previous fluorescence-titration assay determined Kd values for binding of a small set of H3 peptides to ATRXADD [14]. […] Since our primary goal for these initial binding studies was to replicate the previously identified binding trend ac ...

ATRXADD [2] = biological target: T1, ATRXADD; assay: Isothermal titration calorimetry (ITC), this manuscript; type: binding; conditions: data not shown

Row | Substance | Kd (ATRXADD [1]) | ability to bind ATRXADD (ITC), in words (ATRXADD [2])
1 | H3K9me0: H3 peptide of a previous fluorescence-titration assay (ref 14) [Peptide H3K9me0] | > 80000 nM | 
2 | 5-FAM-ARTKQTARKme3STGGKA [FAM-H31-15K9me3, H3_1–15K9me3 labelled at the N-terminus with the fluorescent FAM label] |  | completely abolished the ability of the H3 peptide to bind ATRXADD
3 | H3K9me3: H3 peptide of a previous fluorescence-titration assay (ref 14) [Peptide H3K9me3] | 1300 nM | 
